Measured values taken from patent publication US5180716A, “Cyclodextrin complexes for neuraxial administration of drugs” (The Regents of the University of California, priority 1990, dated 1993).

How the values were obtained:
[1] = plasma concentration following intrathecal injection in the rat; details: 45 min after intrathecal injection, mean of 4-5 rats
[2] = pharmacokinetic parameters in lumbar CSF after epidural administration, dogs
[3] = ex vivo meningeal diffusion / meningeal flux (two-well diffusion cell); details: for reduction in meningeal flux: monkey meninges ex vivo; for degree of reduction in meningeal flux (ordering): after complexation with CDEX
[4] = alfentanil redistribution (plasma, epidural space) after epidural injection, dogs; details: dog
[5] = following spinal administration; cited from earlier work
[6] = alfentanil 400 μg epidural in saline, N = 5
[7] = alfentanil 400 μg epidural, 2% CDEX, N = 1
[8] = alfentanil 400 μg epidural, 20% CDEX, N = 1
[9] = parentheses: same animal as 2% CDEX, without CDEX
[10] = parentheses: same animal as 20% CDEX, without CDEX
[11] = alfentanil 400 μg epidural with 2% CDEX, relative to 20% CDEX
[12] = alfentanil 400 μg epidural with 20% CDEX
[13] = alfentanil 400 μg epidural with CDEX

CCC(=O)N(c1ccccc1)C1(COC)CCN(CCn2nnn(CC)c2=O)CC1
Plasma concentration [1]: 10.4 ng/mL
T1/2abs (halftime of absorption) [2, 6]: 1.57 min
T1/2α (redistribution) [2, 6]: 7.9 min
T1/2 β (elimination half life) [2, 6]: 1.95 h
T max (time to C max) [2, 6]: 4.66 min
T1/2abs (halftime of absorption) [2, 7]: 7.2 min
T1/2α (redistribution) [2, 7]: 7.4 min
T1/2 β (elimination half life) [2, 7]: 7.2 h
T max (time to C max) [2, 7]: 10.7 min
T1/2abs (halftime of absorption) [2, 8]: 30.7 min
T1/2α (redistribution) [2, 8]: 32.3 min
T1/2 β (elimination half life) [2, 8]: 36.3 h
T1/2abs (halftime of absorption) [2, 9]: 3.4 min
T1/2α (redistribution) [2, 9]: 5.8 min
T1/2 β (elimination half life) [2, 9]: 0.523 h
T1/2abs (halftime of absorption) [2, 10]: 2.2 min
T1/2α (redistribution) [2, 10]: 7.1 min
T1/2 β (elimination half life) [2, 10]: 2.53 h
reduction in meningeal flux ([3]; 2% CDEX vs CSF): 20 fold
reduction in meningeal flux ([3]; 20% CDEX vs CSF, listed as alfentanil, HCl): 100 fold
degree of reduction in meningeal flux (ordering) [3]: alfentanil>>sufentanil
plasma drug concentration ([4]; alfentanil 400 μg epidural in saline): rapid increase to peak plasma drug concentrations
peak plasma concentrations (reduction) [4, 11]: to a lesser extent
total body clearance (reduction) [4, 11]: to a lesser extent
peak plasma concentrations [4, 12]: markedly reduced
total body clearance [4, 12]: markedly reduced
apparent volume of epidural space (Va) [4, 13]: increased
rate of redistribution from the epidural space to the systemic circulation [4, 13]: retarded
blood concentrations early on [5]: prominent blood concentrations

CCC(=O)N(c1ccccc1)C1(COC)CCN(CCc2cccs2)CC1
reduction in meningeal flux ([3]; 20% CDEX vs CSF): 10 fold
degree of reduction in meningeal flux (ordering) [3]: alfentanil>>sufentanil
blood concentrations early on [5]: prominent blood concentrations

Some compounds may have been tested in ways that are not shown here.
